Consider seven compounds from patent US7989447B2, “1,5 and 3,6-substituted indole compounds having NOS inhibitory activity” (NeurAxon, Inc., priority 2006, dated 2011).

For the first assay, the target named is human neuronal constitutive NOS (nNOS) (Homo sapiens, UniProt P29475). The assay can be described thus: nNOS (Human) enzyme assay, radiometric conversion of [3H]L-arginine to [3H]L-citrulline. Type of assay: biochemical. Conditions: human eNOS / human nNOS.
For `CN1CCCC1CCn1c(-c2ccc([N+](=O)[O-])cc2)cc2cc(NC(=N)c3cccs3)ccc21` (stereo not shown) [Compound 21, N-(1-(2-(1-methylpyrrolidin-2-yl)ethyl)-2-(4-nitrophenyl)-1H-indol-5-yl)thiophene-2-carboximidamide], the Ratio e/n stood at 10.31.
Same read-out and setting: with `N=C(Nc1ccc2c(c1)cc(-c1ccc([N+](=O)[O-])cc1)n2CCN1CCCCC1)c1cccs1` [Compound 18, N-(2-(4-nitrophenyl)-1-(2-(piperidin-1-yl)ethyl)-1H-indol-5-yl)thiophene-2-carboximidamide] the figure was 46.34.

Still in this assay, the particulars now being: recombinant human enzyme, 37° C., 45 min.
What is called IC50 is the concentration that gives 50% inhibition. Turning to `CN1CCCC(n2ccc3cc(NC(=N)c4ccco4)ccc32)CC1` (stereo not shown) [Compound 54, N-(1-(1-methylazepan-4-yl)-1H-indol-5-yl)furan-2-carboximidamide], the IC50 was determined as 430 nM.
On to `CN1CCCC(n2ccc3cc(NC(=N)c4ccco4)ccc32)CC1` (single isomer, unassigned) [(+)−55], for which the half-maximal inhibitory concentration (IC50) was 400 nM.
The same measure, in the same setting: to `CN1CCCC(n2ccc3cc(NC(=N)c4ccco4)ccc32)CC1` (single isomer, unassigned) [(−)−55] belongs 560 nM; to `CN1CCCC1CCn1ccc2cc(NC(=N)c3cccs3)ccc21` (single isomer, unassigned) [(+)−57], 60 nM.
Still for that read-out and setting: with `CN1CCCC1CCn1ccc2cc(NC(=N)c3cccs3)ccc21` (single isomer, unassigned) [(−)−57] the figure was 20 nM.
